Laboratory results reported in ChEMBL document CHEMBL5725546, “Triazine derivative and pharmaceutical composition having an analgesic activity comprising the same” (2017).
pIC50: −log10 of the molar value.

Biological target: T1, P2X purinoceptor 3 (Homo sapiens, UniProt P56373)
T1 sequence (P56373 whole entry): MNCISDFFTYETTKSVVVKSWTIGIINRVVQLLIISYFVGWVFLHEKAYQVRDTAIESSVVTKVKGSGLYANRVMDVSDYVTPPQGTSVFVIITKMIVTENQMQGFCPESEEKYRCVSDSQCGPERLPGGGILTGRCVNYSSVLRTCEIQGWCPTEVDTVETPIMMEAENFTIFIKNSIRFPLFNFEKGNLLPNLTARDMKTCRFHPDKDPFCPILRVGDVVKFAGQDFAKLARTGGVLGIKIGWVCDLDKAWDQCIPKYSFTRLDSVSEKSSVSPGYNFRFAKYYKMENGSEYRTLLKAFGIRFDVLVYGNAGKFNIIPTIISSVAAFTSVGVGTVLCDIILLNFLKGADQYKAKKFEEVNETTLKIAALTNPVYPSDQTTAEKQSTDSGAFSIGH
Experiment: Human P2X3 Receptor Inhibition Assay: Stably expressing cell line (C6BU-1 transfected with human P2X3 receptor gene (GenBank accession number Y07683) was used. […] The medium was replaced with 4 μM Fluo-3-AM solution (20 mM HEPES, 137 mM NaCl, 2.7 mM KCl, 0.9 mM MgCl2, 5.0 mM CaCl2, 5.6 mM D-glucose, 2.5 mM probenecid, 10% BSA, and 0.08% Pluronic F-127, pH 7.5) and incubated at 37° C. under 5% dioxide carbon atmosphere for one hour. The plate was washed with washing buffer (20 mM HEPES, 137 mM NaCl, 2.7 KCl, 0.9 mM MgCl2, 5.0 mM CaCl2, 5.6 mM D-glucose, 2.5 mM probenecid, pH 7.5), each well was added with 40 μL of this buffer. The plate was placed in High-Throughput Screening System FDSS 3000 (Hamamatsu Photonics K.K.). Measurement of fluorescence intensity by FDSS 3000 was started, and 40 μl, of DMSO solutions containing different concentrations of the test, compound as prepared by dilution with dilution buffer (20 mM HEPES, 137 mM NaCl, 2.7 mM KCl, 0.9 mM MgCl2, 5.0 mM CaCl2, 5.6 mM D-glucose, 2.5 mM probenecid, 0.1.% Pluronic F-127, pH 7.5) were dispensed to each well through the built-in automatic dispenser. Five minutes after, 50 nM ATP solution (50 μL) prepared by dilution with the dilution buffer was dispensed through the built-in automatic dispenser, and the measurement of fluorescence intensity was continued for 3 min. […]

CC(CO)(CO)Cn1c(=O)[nH]/c(=N\c2ccc(Oc3cccnn3)cc2)n(Cc2ccc(Cl)cc2)c1=O
pIC50: 8.40
